According to ChEMBL document CHEMBL1135113, “Synthesis of highly potent and selective hetaryl ureas as integrin alpha(V)beta3-receptor antagonists” (Bioorg Med Chem Lett, 2002):
pIC50: −log10 of the molar value.

Amino acid sequences for entries named in this document (tags omitted). Residues count along the entry.
UniProt P05106, 27-788 limits assumed: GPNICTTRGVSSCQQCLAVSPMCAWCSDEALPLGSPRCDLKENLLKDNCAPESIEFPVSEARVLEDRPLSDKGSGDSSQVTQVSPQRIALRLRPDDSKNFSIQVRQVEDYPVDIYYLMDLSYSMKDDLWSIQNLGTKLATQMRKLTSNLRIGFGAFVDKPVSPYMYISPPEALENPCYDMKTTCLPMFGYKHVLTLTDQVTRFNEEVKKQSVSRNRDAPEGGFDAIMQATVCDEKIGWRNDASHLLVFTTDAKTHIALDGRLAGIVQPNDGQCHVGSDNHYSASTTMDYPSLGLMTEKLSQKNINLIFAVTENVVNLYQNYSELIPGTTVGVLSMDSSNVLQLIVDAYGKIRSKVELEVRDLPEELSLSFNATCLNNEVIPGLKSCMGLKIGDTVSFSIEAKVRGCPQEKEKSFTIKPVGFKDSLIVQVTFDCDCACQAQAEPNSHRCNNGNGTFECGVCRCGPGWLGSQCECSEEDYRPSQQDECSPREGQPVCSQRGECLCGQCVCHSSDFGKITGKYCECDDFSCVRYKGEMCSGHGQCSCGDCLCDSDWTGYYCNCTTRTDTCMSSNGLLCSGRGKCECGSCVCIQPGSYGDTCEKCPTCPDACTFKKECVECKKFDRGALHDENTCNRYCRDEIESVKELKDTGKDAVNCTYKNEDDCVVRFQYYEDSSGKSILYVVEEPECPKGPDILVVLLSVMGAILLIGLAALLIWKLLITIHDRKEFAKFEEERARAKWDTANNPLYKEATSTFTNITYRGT
UniProt P06756, 891-1048 limits assumed: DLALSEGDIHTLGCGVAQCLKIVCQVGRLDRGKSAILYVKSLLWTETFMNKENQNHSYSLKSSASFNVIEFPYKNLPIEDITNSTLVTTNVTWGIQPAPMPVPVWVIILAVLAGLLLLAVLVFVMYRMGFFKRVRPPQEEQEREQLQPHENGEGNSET
UniProt P06756, 31-889 limits assumed: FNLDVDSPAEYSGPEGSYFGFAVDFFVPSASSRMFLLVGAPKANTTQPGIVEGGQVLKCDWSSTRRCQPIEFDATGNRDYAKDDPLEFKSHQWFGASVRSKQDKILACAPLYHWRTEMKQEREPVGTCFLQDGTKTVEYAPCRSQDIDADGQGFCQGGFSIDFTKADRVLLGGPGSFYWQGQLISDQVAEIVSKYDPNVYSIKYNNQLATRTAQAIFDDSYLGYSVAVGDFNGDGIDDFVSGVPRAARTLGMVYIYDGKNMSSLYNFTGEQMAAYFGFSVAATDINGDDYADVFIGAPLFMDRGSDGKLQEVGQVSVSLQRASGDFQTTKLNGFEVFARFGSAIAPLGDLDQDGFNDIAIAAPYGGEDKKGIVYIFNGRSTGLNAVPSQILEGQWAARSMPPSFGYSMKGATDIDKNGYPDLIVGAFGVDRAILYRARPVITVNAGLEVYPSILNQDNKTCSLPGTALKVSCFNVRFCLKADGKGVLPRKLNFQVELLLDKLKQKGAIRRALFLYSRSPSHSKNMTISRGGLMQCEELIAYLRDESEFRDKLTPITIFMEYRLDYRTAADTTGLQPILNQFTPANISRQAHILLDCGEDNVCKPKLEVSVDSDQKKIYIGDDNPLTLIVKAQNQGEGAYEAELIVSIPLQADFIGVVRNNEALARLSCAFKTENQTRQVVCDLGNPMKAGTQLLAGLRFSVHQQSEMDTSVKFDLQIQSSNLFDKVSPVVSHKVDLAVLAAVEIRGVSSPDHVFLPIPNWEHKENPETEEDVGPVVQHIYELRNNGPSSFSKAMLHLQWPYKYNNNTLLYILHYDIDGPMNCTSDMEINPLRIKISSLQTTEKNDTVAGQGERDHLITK

The molecules below were run against T1, Integrin alpha-V/beta-3 (Homo sapiens, UniProt P05106+P06756). Conditions: 10e-5 M.

`O=C(CNC(=O)c1ccc(NC(=O)NCc2ccccc2)o1)NC[C@H](NC(=O)OCc1ccccc1)C(=O)O` was tested, and the inhibition was 86%.

What follows are molecules tested against T1, Integrin alpha-V/beta-3 (assay: Inhibitory activity against alphaV-beta3 integrin). Conditions: not given.
Type: protein-complex assay

First: CN(CC(=O)NC[C@@H](CC(=O)O)NC(=O)OCc1ccccc1)C(=O)c1ccc(NC(=O)NCc2ccccc2)o1
Second: CN(CC(=O)NC[C@H](NC(=O)OCc1ccccc1)C(=O)O)C(=O)c1ccc(NC(=O)NCc2ccccc2)o1
The pIC50 of the first is 1.00 log units lower: 7.05 for the first, 8.05 for the second. The second is the more potent here.

Going from `O=C(O)CC(NC(=O)CNC(=O)c1cnc(NC(=O)NCc2ccccc2)o1)c1cccnc1` (stereo unspecified) to `O=C(O)CC(NC(=O)CNC(=O)c1coc(NC(=O)NCc2ccccc2)n1)c1cccnc1` (stereo unspecified), the pIC50 falls from 9.52 to 7.85 (1.67 log units). The first is the more potent here.

First: O=C(O)CC(NC(=O)CNC(=O)c1ccc(NC(=O)NCc2ccccc2)s1)c1cccnc1 (stereo unspecified)
Second: O=C(O)CC(NC(=O)CNC(=O)c1cnc(NC(=O)NCc2ccccc2)s1)c1cccnc1 (stereo unspecified)
The pIC50 of the first is 1.00 log units higher: 6.00 for the first, 5.00 for the second. The first is the more potent here.

Compared with `Cn1cc(NC(=O)NCc2ccccc2)cc1C(=O)NCC(=O)NC(CC(=O)O)c1cccnc1` (stereo unspecified), `O=C(O)CC(NC(=O)CNC(=O)c1csc(NC(=O)NCc2ccccc2)c1)c1cccnc1` (stereo unspecified) is 0.90 log units higher in pIC50: 7.80 for the first, 8.70 for the second.

First: Cc1ccc(C(CC(=O)O)NC(=O)CN(C)C(=O)c2ccc(NC(=O)NCc3ccccc3)o2)cc1 (stereo unspecified)
Second: Cc1ccc(C(CC(=O)O)NC(=O)CNC(=O)c2ccc(NC(=O)NCc3ccccc3)o2)cc1 (stereo unspecified)
The pIC50 of the first is 1.72 log units lower: 7.00 for the first, 8.72 for the second.

Compared with `O=C(O)CC(NC(=O)CNC(=O)c1n[nH]c(NC(=O)NCc2ccccc2)n1)c1cccnc1` (stereo unspecified), `O=C(O)CC(NC(=O)CNC(=O)c1csc(NC(=O)NCc2ccccc2)n1)c1cccnc1` (stereo unspecified) is 2.38 log units higher in pIC50: 7.14 for the first, 9.52 for the second. The second is the more potent here.

First: O=C(O)CC(NC(=O)CNC(=O)c1ccc(NC(=O)NCc2ccccc2)o1)c1cccnc1 (stereo unspecified)
Second: O=C(O)CC(NC(=O)CCNC(=O)c1ccc(NC(=O)NCc2ccccc2)o1)c1cccnc1 (stereo unspecified)
The pIC50 of the first is 3.16 log units higher: 10.00 for the first, 6.84 for the second. The first is the more potent here.

First: O=C(O)CC(NC(=O)CNC(=O)c1ccc(NC(=O)NCc2ccccc2)o1)C1CCCCC1 (stereo unspecified)
Second: O=C(O)CC(NC(=O)CCNC(=O)c1ccc(NC(=O)NCc2ccccc2)o1)C1CCCCC1 (stereo unspecified)
The pIC50 of the first is 4.05 log units higher: 9.05 for the first, 5.00 for the second.

Compared with `O=C(O)C[C@H](CNC(=O)CNC(=O)c1ccc(NC(=O)NCc2ccccc2)o1)NC(=O)OCc1ccccc1`, `O=C(O)C[C@@H](CNC(=O)CCNC(=O)c1ccc(NC(=O)NCc2ccccc2)o1)NC(=O)OCc1ccccc1` is 1.73 log units lower in pIC50: 7.36 for the first, 5.63 for the second.

Compared with `COc1ccc(C(CC(=O)O)NC(=O)CNC(=O)c2ccc(NC(=O)NCc3ccccc3)o2)cc1OC` (stereo unspecified), `O=C(O)CC(NC(=O)CNC(=O)c1ccc(NC(=O)NCc2ccccc2)o1)c1ccc2ccccc2c1` (stereo unspecified) is 0.22 log units higher in pIC50: 9.30 for the first, 9.52 for the second. The second is the more potent here.

First: O=C(O)CC(NC(=O)CNC(=O)c1ccc(NC(=O)NCc2ccccc2)o1)c1ccc(-c2ccccc2)cc1 (stereo unspecified)
Second: Cc1ccc(C(CC(=O)O)NC(=O)CCNC(=O)c2ccc(NC(=O)NCc3ccccc3)o2)cc1 (stereo unspecified)
The pIC50 of the first is 2.82 log units higher: 8.82 for the first, 6.00 for the second. The first is the more potent here.

Compared with `O=C(CCNC(=O)c1ccc(NC(=O)NCc2ccccc2)o1)NC[C@@H](NC(=O)OCc1ccccc1)C(=O)O`, `O=C(NCc1ccccc1)Nc1ccc(C(=O)NCCC[C@H](NC(=O)OCc2ccccc2)C(=O)O)o1` is 2.51 log units lower in pIC50: 8.51 for the first, 6.00 for the second.

Going from `O=C(O)CC(NC(=O)CNC(=O)c1cnc(NC(=O)NCc2ccccc2)o1)c1cc(Cl)cc(Cl)c1` (stereo unspecified) to `O=C(O)CC(NC(=O)CNC(=O)c1ccc(NC(=O)NCc2ccccc2)o1)c1cc(Cl)cc(Cl)c1` (stereo unspecified), the pIC50 rises from 8.42 to 9.70 (1.28 log units).

Compared with `CN(CC(=O)NC(CC(=O)O)C1CCCCC1)C(=O)c1ccc(NC(=O)NCc2ccccc2)o1` (stereo unspecified), `CN(CC(=O)NC(CC(=O)O)c1cc(Cl)cc(Cl)c1)C(=O)c1ccc(NC(=O)NCc2ccccc2)o1` (stereo unspecified) is 0.79 log units higher in pIC50: 6.51 for the first, 7.30 for the second.

Molecule `O=C(NCc1ccccc1)Nc1ccc(C(=O)NCCCC[C@@H](NC(=O)OCc2ccccc2)C(=O)O)o1` has a pIC50 of 5.30.

Target: T1, Integrin alpha-V/beta-3
Conditions: 10e-5 M
Remark: another data set of the same source

With `O=C(CNC(=O)c1cnc(NC(=O)NCc2ccccc2)o1)NC[C@H](NC(=O)OCc1ccccc1)C(=O)O` the inhibition was 92%.
